Values of other authors, collected in patent US20100247688A1 (priority 2007, published 2010).

Details: in vivo; cited from earlier work

Substance: pirenzepine [AC-91]
- CSF concentration: 4 ng/mL
- fraction of plasma concentration in CSF: 9.5%
